# Source: paper PMC4077706, “Lifting the Mask: Identification of New Small Molecule Inhibitors of Uropathogenic Escherichia coli Group 2 Capsule Biogenesis” (PLoS ONE, 2014)
# Sequences of proteins named here, by UniProt entry; tags and fusion partners are left off. A change or cut given only in a name is not applied to a line headed by its entry.
# UniProt P25105: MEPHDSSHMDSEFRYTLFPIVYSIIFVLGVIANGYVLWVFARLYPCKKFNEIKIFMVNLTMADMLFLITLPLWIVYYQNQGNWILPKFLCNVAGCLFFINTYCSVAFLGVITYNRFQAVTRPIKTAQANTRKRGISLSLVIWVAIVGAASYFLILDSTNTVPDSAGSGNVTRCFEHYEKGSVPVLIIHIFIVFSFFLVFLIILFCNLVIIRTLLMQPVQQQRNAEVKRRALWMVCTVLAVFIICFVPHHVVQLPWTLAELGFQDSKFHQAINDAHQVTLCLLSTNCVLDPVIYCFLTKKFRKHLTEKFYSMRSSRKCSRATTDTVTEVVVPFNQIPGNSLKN
# Biological target: T1, Platelet Activating Factor (PAF) (Homo sapiens, UniProt P25105)
# T1 construct: Human platelets; host or cells: human platelets
# Type: binding
# Settings: read-out: IC50 Concurrent
substance,measurement,value
PAF [reference compound],IC50,0.22 nM
